Test results: patent publication US20200291127A1, “ANTIBODIES AND METHODS OF USE THEREOF” (AbeXXa Biologics, Inc., priority 2020, published 2020)

Amino acid sequences for entries named in this document (tags omitted). Residues count along the entry.
UniProt P13747, 22-305: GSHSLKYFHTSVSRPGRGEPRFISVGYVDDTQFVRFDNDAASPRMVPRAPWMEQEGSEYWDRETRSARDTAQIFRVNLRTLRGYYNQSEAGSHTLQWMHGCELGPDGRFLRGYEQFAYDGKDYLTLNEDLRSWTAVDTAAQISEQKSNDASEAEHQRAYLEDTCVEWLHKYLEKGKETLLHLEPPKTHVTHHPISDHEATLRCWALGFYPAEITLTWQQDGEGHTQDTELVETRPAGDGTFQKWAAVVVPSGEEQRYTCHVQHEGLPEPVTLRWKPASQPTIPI

Biological target: HLA-E*0103 (Homo sapiens, UniProt P13747)
Assay: HLA-E peptide refolding into monomer complexes
Format: biochemical

Sequence: SLLMWITQV
- refolding of HLA-E*0103/peptide: successfully refold HLA-E*0103/peptide into stable monomer complexes
